Results from US12514865B2, “Biomaterial-based antigen free vaccine and the use thereof” (President and Fellows of Harvard College, priority 2019, dated 2026).

Assay: In vitro encapsulation and release of biomolecules from the cryogel vaccine
Format: physicochemical
Description: To determine the incorporation efficiency and release kinetics of Cpg-odn, GM-CSF and antigen from cryogel vaccines, gels were incubated in lml of sterile PBS at 37° C. with shaking. Media was replaced periodically. Micro-BCA (Pierce Biotechnology) was used to quantify total protein content. GM-CSF and Cpg-odn released in the supernatant were detected by ELISA (Invitrogen) and OliGreen assay (Invitrogen), respectively. The amount of antigen was determined by subtracting total protein content from the amount of GM-CSF quantified by ELISA.

## RMFPNAPYL [WT-1126-134]
100 μg loaded
  amount released over a period of 10 days after the burst release: Approximately 4 μg
antigen, in vitro, from cryogel
  burst release over the first two days: 3.3%
In MA-PEG/MA-alginate vaccine cryogel
  encapsulation efficiency: 75%
